Sequences of proteins named here, by UniProt entry; tags and fusion partners are left off. Residues count along the entry.
UniProt Q9NZQ7, 19-238 limits assumed: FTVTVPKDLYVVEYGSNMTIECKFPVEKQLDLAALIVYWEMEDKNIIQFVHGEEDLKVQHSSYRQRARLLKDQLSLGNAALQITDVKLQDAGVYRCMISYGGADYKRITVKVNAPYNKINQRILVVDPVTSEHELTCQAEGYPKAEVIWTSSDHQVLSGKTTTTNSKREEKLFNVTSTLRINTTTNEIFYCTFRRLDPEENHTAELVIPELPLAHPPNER

According to patent US10710986B2, “PD-1/PD-L1 inhibitors” (Gilead Sciences, Inc., priority 2018, dated 2020):

Target: PD-1/PD-L1 (Homo sapiens (Human), UniProt Q9NZQ7)
Experiment: PD-1/PD-L1 biochemical protein-protein interaction assay (ALPHA)
Conditions: read-out: IC50 PD-L1-PD1, 0.3 nM His tagged PD-L1, 2.5 nM biotinylated Fc-PD-1, 60 minutes at 25° C.

IC50: 0.239 nM
Structure (SMILES): COc1nc(-c2cccc(-c3cccc(-c4cnc(CN5C[C@H](C)[C@@H](O)C5)c(OC)n4)c3Cl)c2Cl)cnc1CN1C[C@H](C)[C@@H](O)C1
